Assay: Disposition of Hg
Details: 24 h
[1] = both control and TR− rats, data not shown

For “Cysteine-S-conjugate of CH3HgCl [Cys-S-CH3Hg]”, the “hematological burden of Hg, compared with rats of the same strain exposed to HgCl2 or CH3HgCl alone” value (TR− rats, i.v.) was “significantly lower and half”, the “hepatic burden of Hg, compared with rats of the same strain exposed to HgCl2 or CH3HgCl alone” value (TR− rats, i.v.) was “significantly greater” and the “renal burden of Hg, compared with rats of the same strain exposed to HgCl2 or CH3HgCl alone” value (TR− rats, i.v.) was “four-fold greater”. The “urinary excretion of Hg, compared with rats of the same strain exposed to HgCl2 or CH3HgCl alone” value (TR− rats, i.v.) was “less Hg in the urine”, the “hematological burden of Hg associated with cellular components of blood” value [1] was “approximately 99%” and the “hematological burden of Hg present in plasma” value [1] was ~1%. For the same substance, the “fecal excretion of Hg, compared with rats of the same strain exposed to HgCl2 or CH3HgCl alone” value (control rats, i.v.) was “increased significantly”, the “hematological burden of Hg, compared with rats of the same strain exposed to HgCl2 or CH3HgCl alone” value (control rats, i.v.) was “significantly lower and half” and the “hepatic burden of Hg, compared with rats of the same strain exposed to HgCl2 or CH3HgCl alone” value (control rats, i.v.) was “significantly greater”. The “renal burden of Hg, compared with rats of the same strain exposed to HgCl2 or CH3HgCl alone” value (control rats, i.v.) was “four-fold greater”, the “urinary excretion of Hg, compared with rats of the same strain exposed to HgCl2 or CH3HgCl alone” value (control rats, i.v.) was “twofold greater” and the “amount of Hg in blood, TR− rats compared with corresponding control rats” value (i.v.) was “did not significantly alter”. The “renal burden of Hg, TR− rats compared with corresponding control rats” value (i.v.) was “slightly, yet significantly, greater” and the “renal burden of Hg” value (rats, strain not stated (discussion), i.v.) was ~20 % of the dose.
